Laboratory results from patent publication US20130197089A1, “COMPOSITIONS FOR THE TREATMENT OF ACTINIC KERATOSIS” (DOLORGIET GMBH & CO. KG, priority 2012, published 2013).

Legend:
[1] = test system: actinic keratosis lesions; assay: Second study: 10% ibuprofen gel vs 3% diclofenac gel in patients with actinic keratosis; settings: for Investigator global improvement index (IGII): scale -2 to +4
Experimental: (§1) The application frequency was twice a day. The success of the treatment was evaluated after 30, 60 and 90 days.
(§2) When included in the study, the severity of the lesions was evaluated according to the so-called BSI (baseline severity index) score from 0 to 3. Patients having a BSI score of 1 and 2 were exclusively included in the study.
(§3) The main target parameters within the scope of effectiveness were the total number of lesions in the treatment area and the IGII (investigator global improvement index) score from −2 to +4. From round 1, the evaluations were always done in comparison with the preliminary round.
(§4) IGII (investigator global improvement index) • −2 significant worsening • −1 slight worsening • 0 unchanged • 1 slight improvement • 2 improvement • 3 significant improvement • 4 complete healing
The design of the study was the same as that of the first study.

[2] = test system: actinic keratosis lesions; assay: Preliminary study: 5% ibuprofen gel vs 3% diclofenac gel in patients with actinic keratosis; settings: scale -2 to +4
Experimental: The study was performed according to the relevant criteria and was approved by the ethics commission of the dermatological society of Slovakia.
as §1, §2
BSI score (baseline severity index score 1-3) • 0=no actinic keratosis (AK) visible • 1=clearly visible lesion • 2=many small, moderately thick lesions or a few large scaly lesions visible • 3=many thick hypertrophic lesions that are clearly visible and palpable with clear bounds.
as §3, §4
The IGII was measured between each two rounds.

[3] = Forehead, V0 (start of the study)

## O=C(O)Cc1ccccc1Nc1c(Cl)cccc1Cl [Diclofenac, diclofenac]
[1]; 10% ibuprofen gel or 3% diclofenac gel, 90 days
  Therapeutic result in treating slight and moderate keratosis lesions (in words): good
[1]; Face, V0 (start of the study)
  Investigator global improvement index (IGII): 0
[1]; Face, V3 (after 90 days of treatment), 10% ibuprofen gel or 3% diclofenac gel
  Investigator global improvement index (IGII): 2.17
[1]; [3]
  Investigator global improvement index (IGII): 0
[1]; Forehead, V3 (after 90 days of treatment), 10% ibuprofen gel or 3% diclofenac gel
  Investigator global improvement index (IGII): 2.3
[1]; Hand, V0 (start of the study)
  Investigator global improvement index (IGII): 0
[1]; Hand, V3 (after 90 days of treatment), 10% ibuprofen gel or 3% diclofenac gel
  Investigator global improvement index (IGII): 2.4
[2]; Face, V0 (start of the study)
  Investigator global improvement index (IGII): 0
[2]; Face, V3 (after 90 days of treatment), 5% ibuprofen gel or 3% diclofenac gel
  Investigator global improvement index (IGII): 1.7
[2]; [3]
  Investigator global improvement index (IGII): 0
[2]; Forehead, V3 (after 90 days of treatment), 5% ibuprofen gel or 3% diclofenac gel
  Investigator global improvement index (IGII): 1.55
[2]; Hand, V0 (start of the study)
  Investigator global improvement index (IGII): 0
[2]; Hand, V3 (after 90 days of treatment), 5% ibuprofen gel or 3% diclofenac gel
  Investigator global improvement index (IGII): 1
[2]; Scalp, V0 (start of the study)
  Investigator global improvement index (IGII): 0
[2]; Scalp, V3 (after 90 days of treatment), 5% ibuprofen gel or 3% diclofenac gel
  Investigator global improvement index (IGII): 1.75
